Amino acid sequences for entries named in this document (tags omitted). A change or cut given only in a name is not applied to a line headed by its entry.
UniProt P05106: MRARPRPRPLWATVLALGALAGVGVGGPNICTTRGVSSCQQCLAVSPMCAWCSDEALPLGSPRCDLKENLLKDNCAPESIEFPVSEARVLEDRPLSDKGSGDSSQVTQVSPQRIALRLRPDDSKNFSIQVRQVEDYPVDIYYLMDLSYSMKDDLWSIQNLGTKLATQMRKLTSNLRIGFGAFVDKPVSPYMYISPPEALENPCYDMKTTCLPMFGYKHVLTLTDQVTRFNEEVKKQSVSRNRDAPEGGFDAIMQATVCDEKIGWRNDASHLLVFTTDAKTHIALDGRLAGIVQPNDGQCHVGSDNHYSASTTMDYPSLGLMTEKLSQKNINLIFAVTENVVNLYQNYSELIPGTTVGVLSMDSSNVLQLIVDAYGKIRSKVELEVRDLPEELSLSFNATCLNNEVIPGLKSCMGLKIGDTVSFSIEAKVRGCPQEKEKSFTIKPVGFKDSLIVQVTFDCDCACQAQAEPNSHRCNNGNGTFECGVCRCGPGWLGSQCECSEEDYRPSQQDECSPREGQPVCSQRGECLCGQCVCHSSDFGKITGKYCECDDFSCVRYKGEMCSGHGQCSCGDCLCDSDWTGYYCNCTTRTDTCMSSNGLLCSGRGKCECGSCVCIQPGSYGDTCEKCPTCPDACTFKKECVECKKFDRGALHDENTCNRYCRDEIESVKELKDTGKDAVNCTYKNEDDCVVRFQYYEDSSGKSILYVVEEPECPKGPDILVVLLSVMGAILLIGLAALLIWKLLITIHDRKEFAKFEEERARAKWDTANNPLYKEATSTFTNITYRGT
UniProt P08514: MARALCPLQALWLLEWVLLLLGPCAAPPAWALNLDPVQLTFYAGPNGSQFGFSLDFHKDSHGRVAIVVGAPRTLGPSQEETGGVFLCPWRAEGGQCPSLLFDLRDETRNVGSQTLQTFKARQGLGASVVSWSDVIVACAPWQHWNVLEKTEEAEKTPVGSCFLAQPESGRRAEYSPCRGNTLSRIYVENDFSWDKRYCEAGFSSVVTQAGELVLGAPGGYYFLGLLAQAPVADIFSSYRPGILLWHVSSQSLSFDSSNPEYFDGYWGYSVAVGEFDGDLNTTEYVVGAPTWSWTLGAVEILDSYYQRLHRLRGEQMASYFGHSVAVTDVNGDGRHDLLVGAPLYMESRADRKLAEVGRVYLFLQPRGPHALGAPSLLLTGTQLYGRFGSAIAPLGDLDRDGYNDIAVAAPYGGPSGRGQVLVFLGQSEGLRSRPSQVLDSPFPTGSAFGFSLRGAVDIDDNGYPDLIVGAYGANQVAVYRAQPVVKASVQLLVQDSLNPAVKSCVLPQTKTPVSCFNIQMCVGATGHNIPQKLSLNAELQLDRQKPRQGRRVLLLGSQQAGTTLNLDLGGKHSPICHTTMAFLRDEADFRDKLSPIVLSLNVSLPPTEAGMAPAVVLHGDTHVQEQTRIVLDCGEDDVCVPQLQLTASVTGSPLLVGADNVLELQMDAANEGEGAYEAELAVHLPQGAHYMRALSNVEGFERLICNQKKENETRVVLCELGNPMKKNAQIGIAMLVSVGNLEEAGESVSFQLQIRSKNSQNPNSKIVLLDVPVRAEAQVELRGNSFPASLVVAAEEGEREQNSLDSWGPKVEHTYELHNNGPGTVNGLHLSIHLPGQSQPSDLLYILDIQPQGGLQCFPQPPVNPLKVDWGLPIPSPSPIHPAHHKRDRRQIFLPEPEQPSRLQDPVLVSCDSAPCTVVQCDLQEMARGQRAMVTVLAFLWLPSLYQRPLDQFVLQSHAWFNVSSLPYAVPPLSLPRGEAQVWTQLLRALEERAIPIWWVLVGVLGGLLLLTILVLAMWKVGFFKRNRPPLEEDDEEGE

According to ChEMBL document CHEMBL3112409, “A novel class of ion displacement ligands as antagonists of the αIIbβ3 receptor that limit conformational reorganization of the receptor” (Bioorg Med Chem Lett, 2014):

Experiments:
[1] = in vitro; details: rat, in vivo
[2] = in vitro; details: human, in vivo
[3] = in vitro; details: mouse, in vivo
[4] = Intrinsic clearance in mouse liver microsomes; type: ADME, Microsome
[5] = system: Liver microsome; test: Intrinsic clearance in rat liver microsomes; type: ADME
[6] = target: Integrin alpha-IIb/beta-3 (Homo sapiens) (UniProt P05106+P08514); details: 20 uM

Row | SMILES | half-life [1] [min] | half-life [2] [min] | half-life [3] [min] | CLH [4] [µL/min/mg] | CLH [5] [µL/min/mg] | inhibition [6] [%]
1 | NCC(=O)Nc1cncc(-c2nn3c(=O)cc(N4CCNCC4)nc3s2)c1 [ZALUNFIBAN] | 25.3 | 58.9 | 15.6 | 89 | 54.9 | –
2 | CCc1nn2c(=O)cc(N3CCNCC3)nc2s1 | – | – | – | – | – | 51
